# Measurements published in patent US7772230B2, “Chroman compound, processes for its preparation, and its pharmaceutical use” (China Pharmaceutical University, priority 2006, dated 2010).
# Target: T1, slowly delayed rectifier potassium channel current (IKs) (Cavia porcellus, UniProt O70344)
# T1 construct: the Guinea pig myocardial cells are separated with enzymolysis; endogenous in cells; host or cells: freshly isolated guinea pig ventricular myocytes
# T1 sequence (O70344 1-671): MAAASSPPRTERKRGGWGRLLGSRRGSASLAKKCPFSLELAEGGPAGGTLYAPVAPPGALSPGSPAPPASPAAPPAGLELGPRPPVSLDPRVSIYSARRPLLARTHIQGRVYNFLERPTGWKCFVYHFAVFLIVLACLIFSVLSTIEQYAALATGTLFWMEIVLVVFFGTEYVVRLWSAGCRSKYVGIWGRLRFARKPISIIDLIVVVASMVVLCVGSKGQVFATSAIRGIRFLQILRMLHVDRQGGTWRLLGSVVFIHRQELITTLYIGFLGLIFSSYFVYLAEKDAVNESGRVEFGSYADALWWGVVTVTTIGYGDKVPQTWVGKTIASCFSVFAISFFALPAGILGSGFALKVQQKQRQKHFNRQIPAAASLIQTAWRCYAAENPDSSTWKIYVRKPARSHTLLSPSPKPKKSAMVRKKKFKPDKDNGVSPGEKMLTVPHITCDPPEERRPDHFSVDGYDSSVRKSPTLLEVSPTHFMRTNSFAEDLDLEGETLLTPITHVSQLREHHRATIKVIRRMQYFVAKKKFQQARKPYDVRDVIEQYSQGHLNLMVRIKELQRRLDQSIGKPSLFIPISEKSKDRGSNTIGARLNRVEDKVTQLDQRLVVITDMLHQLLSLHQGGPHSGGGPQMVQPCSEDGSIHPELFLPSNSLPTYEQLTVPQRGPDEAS
# T1 sequence (P41686 1-245 partner): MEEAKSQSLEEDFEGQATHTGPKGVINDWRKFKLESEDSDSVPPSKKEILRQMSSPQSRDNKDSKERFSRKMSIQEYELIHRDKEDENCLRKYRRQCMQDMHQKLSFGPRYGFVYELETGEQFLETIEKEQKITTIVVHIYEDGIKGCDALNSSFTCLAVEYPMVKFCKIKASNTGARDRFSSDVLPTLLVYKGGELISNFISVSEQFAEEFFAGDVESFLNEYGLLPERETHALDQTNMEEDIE
# Test: whole cell patch clamp on isolated Guinea pig myocardial cells, IKs
# Type: cell-based
# Settings: Guinea pig ventricular myocytes, current recorded 10 min after administration, 25-30° C.
# Method: Experimental title: using vitro pachynsis myocardial cells of Guinea pig, the activity is determined by the whole cell membrane Patch clamp technology.
# experimental mechanism: the Guinea pig myocardial cells are separated with enzymolysis, and the rapid activation component and the slowly activation component of the delayed commutating current in the cardiac muscle cells are recorded by whole cell membrane Patch clamp. Each compound is added to the perfuse liquid for measuring current after dissolved at least 10 min. The collected data is analyzed in pulse-fit, the IC50 value for IKr and IKs of each compound is calculated.
# animals: Guinea pigs, male, weight 300-400 g.
# solution: calcium free Tyrode's solution
# pole inner solution (mmol/L): KCl 140, MgCl2 1.0, K2-ATP 4.0, EGTA 10, HEPES 5.0, pH=7.2 […]
# the cell liquor is put into the cell pool, after the cells adhering to the wall, they are perfused with outer liquor of the cells at the rate of 2 ml/min, cells that having calcium resistance and clear transverse striations are to be selected, the poles are moved to the cell surface by tridimensional manipulator. […] After the compensation to the capacitance and series impedance compensation the voltage tongs are recorded. […]
# Stimulate parameter: the record of IKr and IKS: the back value of the either current is recorded. […]
smiles,measurement,value
"CCCCOc1ccc2c(c1)/C(=N/N1CC(=O)N(CCCN3CCN(C)CC3)C1=O)CCO2 [Ib example 11, 1-[4-(2,3-dihydro-6-butoxy)benzopyran]imino-3-[3-(4-methylpiperazine-1-yl)propyl]-2,4-imidazole dione difumarate]",IC50,1230 nM
